Earlier results on 1 compound are cited in US20070254881A1, “Pyrazole Derivative” (DAIICHI PHARMACEUTICAL CO., LTD., priority 2004, published 2007).

The chains behind the UniProt entries cited, without tags or fusion partners. Residues count along the entry.
UniProt P35354, 18-604: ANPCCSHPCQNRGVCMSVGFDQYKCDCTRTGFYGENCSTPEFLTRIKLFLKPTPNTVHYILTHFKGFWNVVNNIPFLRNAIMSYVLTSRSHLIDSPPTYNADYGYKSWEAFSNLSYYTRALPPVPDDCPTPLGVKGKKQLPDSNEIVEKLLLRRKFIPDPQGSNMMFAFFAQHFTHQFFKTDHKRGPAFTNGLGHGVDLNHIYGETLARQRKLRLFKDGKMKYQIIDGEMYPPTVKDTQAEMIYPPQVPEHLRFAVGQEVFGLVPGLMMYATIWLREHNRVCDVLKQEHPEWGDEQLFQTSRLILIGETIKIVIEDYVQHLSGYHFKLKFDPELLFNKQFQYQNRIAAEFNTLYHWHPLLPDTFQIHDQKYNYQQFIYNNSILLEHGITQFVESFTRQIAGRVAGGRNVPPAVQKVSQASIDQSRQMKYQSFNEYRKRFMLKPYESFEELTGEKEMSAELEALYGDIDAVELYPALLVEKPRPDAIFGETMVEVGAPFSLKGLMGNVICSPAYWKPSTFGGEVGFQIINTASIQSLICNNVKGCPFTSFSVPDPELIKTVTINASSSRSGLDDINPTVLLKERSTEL

The target in the data set is COX-2 (Homo sapiens, UniProt P35354). To be noted: read-out: inhibitory activity against COX-2 (IC50); cited from earlier work.

On to `CS(=O)(=O)c1ccc(-c2cc(C#N)nn2-c2ccc(F)cc2)cc1` [compound (A)], for which the IC50 is 0.24 µM.

As a reminder, the IC50 is the concentration that inhibits the measured activity by half.
